# Source: PubChem (National Center for Advancing Translational Sciences (NCATS))
# A549 viability = A549 cytotoxicity, counter-screen for Nrf2 inhibitors; Potency, µM (highest dose often 46 µM), inactives show top-dose activity change, negative = cytotoxicity, actives largely listed as inhibitors; 0.16% of 390,000 active; A549 ARE-Fluc cells, CellTiter-Fluor viability, 18-24 h; AID 504648; further: potency means the concentration at half of the fitted maximal effect; on the % scale 0 is the no-effect control and ±100 the full control effect
#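 Cytotoxicity counterscreen: CellTiter-Fluor fluorescence was measured in A549 ARE_Fluc cells after 18-24 h of compound exposure in a concentration series. The subsequent BugLite luminescent read reports ARE-luciferase activity.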
# Nrf2 ARE act = Nrf2 pathway activation | 0.31% of 410,000 active | Potency, µM (highest dose often 46.1 µM), for the others: at the top dose activation, actives largely listed as activators | AREc32 ARE-luciferase reporter (MCF7-derived line), luminescence, 24 h | AID 624171; further: potency means the concentration at half of the fitted maximal effect; % of control where 0% means no effect; nearly all actives have a fitted effect of over 65% in size
#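 For detection, Steady-Glo was added and plates sat 30 min at RT; before that, AREc32_Fluc cells grown overnight in OPTI-MEM/5% FBS had been treated with 23 nL compound for 24 hr at 37 deg C.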
# Nrf2 block = inhibitors of Nrf2 signaling | AID 504444 | A549 ARE-Fluc reporter, luciferase luminescence, 18-24 h | 2.1% of 360,000 active | Potency, µM (top dose mostly 46 µM), without a hit: top-dose activity change, negative = inhibition, most hits filed as inhibitors; further: potency means the concentration at half of the fitted maximal effect; on the % scale 0 is the no-effect control and ±100 the full control effect; nearly all actives have a fitted effect of over 60% in size
#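 Cells were seeded and rested 2 h, then exposed to compounds for 18-24 h. CellTiter-Fluor was read first as a viability measure. BugLite was added 15 min before the final luminescent read of ARE-luciferase activity in A549 cells.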
# p53 reactivation = restores transcriptional activity of mutant p53 | H1299 p53-A138V BP100-luciferase reporter, luminescence, 24 h | Potency, µM (highest dose often 92.2 µM), for inactives: at the highest dose activity change, positive = activation, hits mostly activators | 0.063% of 320,000 active | AID 504706; further: potency means the concentration at half of the fitted maximal effect; % of control where 0% means no effect; nearly all actives have a fitted effect of over 45% in size
#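 H1299 (p53-null), stable ts p53-A138V + BP100-Luc; 1000 cells/well, Opti-MEM/10% FBS; cpd 4 pt, 1:5; 24 h, 37 deg C, 5% CO2; detection reagent 10 min RT; luminescence.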
# ClpP mod = qHTS Assay for Activators of ClpP; ATP-dependent Clp protease proteolytic subunit (Bacillus subtilis (strain 168)), P80244; purified B. subtilis ClpP, FRET peptide cleavage, 20 min; Potency, µM (highest dose often 57.5 µM), without a hit: at the highest dose activity change, negative = active; 1.9% of 340,000 active; AID 651965, 2013; active means well fitted falling curve with a large enough effect; inconclusive means small, poorly fitted or top-dose-only effect; inactive means no such curve, though single readings can be large or run the other way; further: potency means the concentration at half of the fitted maximal effect; the source files actives as falling curves though it sought activators and does not explain the sign; nearly all actives have a fitted effect of over 65% in size
#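 ClpP 10 microg/mL final, pH 8 Tris/KCl buffer with BSA, glycerol, Tween-20; compound pinned in; FRET-FV substrate; RT 20 min; Ex320/Em430; ΔFRET vs ADEP 5.8 microM, DMSO, no enzyme.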
# miR-21 reporter = miR-21 reporter, rising signal; HeLa miR-21 FLuc reporter, luciferase, 48 h; Potency, µM (doses to about 38.3 µM), for inactives: at the highest dose reporter change, positive = more light; 340,000 tested, under 10 active; AID 2288; active = well fitted rising curve with a large enough effect; inconclusive = small, poorly fitted or top-dose-only effect; inactive = no such curve, though single readings can be large or run the other way;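 further: % of control where 0% means no effect; miR-21 action dims this reporter so a rising signal means less miR-21 action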
#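 Luminescence from a firefly luciferase reporter carrying a miR-21 binding site downstream, stably expressed under a CMV promoter in HeLa cells that make miR-21 endogenously, reports miRNA modulation after 48 h compound exposure up to approximately 40uM final.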
# The depositor's hits bear a star; ? = inconclusive; · = no result. Compounds with a hit are over-represented: about 3.7% of the library has one in this group of screens. Unless noted, the call rests on the fitted dose curve; in most records, active means well fitted curve in the direction sought with a large enough effect; inconclusive means small, poorly fitted or top-dose-only effect, or another doubt; inactive means no such curve, though single readings can be large; an effect the other way counts as inactive or inconclusive.
No. | canonical_smiles | A549 viability | Nrf2 ARE act | Nrf2 block
1 | CCOC(=O)N1CCN(C(=O)c2ccc3nc4ccc(Cl)cc4c(=O)n3c2)CC1 | 3% | 0% | 11%
2 | O=C(CN(Cc1ccccc1)S(=O)(=O)c1ccc(Br)cc1)NCC1CCCO1 (stereo not given) | 0% | 1% | -14%
3 | O=C(CN(Cc1ccccc1)S(=O)(=O)c1ccc(Cl)cc1)NCC1CCCO1 (stereo not given) | 2% | -1% | 7%
4 | CCOC(=O)c1c(C)oc2nc(C)nc(NCC3CCN(Cc4ccc(F)cc4)CC3)c12 | 6% | 4% | 27%
5 | COc1ccccc1-c1nn(CCC(=O)Nc2ccccc2)c2nc(C)cc(C)c12 | -1% | 2% | -6%
6 | COc1ccc(-c2coc3c2c(C)cc2oc(=O)c(CC(=O)O)c(C)c23)cc1 | -1% | 4% | 21%
7 | Cc1cc2oc(=O)c(CC(=O)O)c(C)c2c2occ(-c3ccc(F)cc3)c12 | 8% | 1% | ?
8 | Cc1cc2nc(C)c(Cc3ccccc3)c(=O)n2[nH]1 | -3% | 0% | 6%

No. | p53 reactivation | ClpP mod | miR-21 reporter
1 | -7% | 14µM* | -7%
2 | -3% | 25µM* | 3%
3 | -4% | · | 0%
4 | · | 0% | -2%
5 | · | 3% | 21%
6 | · | -10% | -11%
7 | · | 28µM* | -28%
8 | -13% | 14µM* | -7%

# The listing continues:
No. | canonical_smiles | A549 viability | Nrf2 ARE act | Nrf2 block
9 | Cc1ccc(C)c(N2CCN(S(=O)(=O)c3ccc(C(=O)N(C)C)s3)CC2)c1 | -3% | 0% | ·
10 | CN=c1sc2c(n1C)C(=O)c1ccccc1C2=O | ? | 6% | 21µM*
11 | Nc1ccc(Cn2ccc3c4c(N)nc(N)nc4ccc32)cc1 | -15% | 17% | 0.82µM*
12 | CCCCCCOc1ccc(C2C(=O)N(C3CCCCC3)CC(=O)N2CCCC)cc1 (stereo not given) | -7% | -1% | ·
13 | COC(=O)Cc1c(C)nc2nc(-c3ccc(Cl)cc3)[nH]n2c1=O | -8% | 1% | 16%
14 | CCOC(=O)Cc1c(C)nc2cc(-c3ccc(Cl)cc3)[nH]n2c1=O | -6% | 0% | ?
15 | CCOC(=O)Cc1cc(=O)n2[nH]c(-c3ccc(C)cc3)cc2n1 | -2% | 1% | 16%
16 | CCCc1cc(=O)n2[nH]cc(-c3ccc(Cl)cc3)c2n1 | ? | 0% | 21µM*

No. | p53 reactivation | ClpP mod | miR-21 reporter
9 | · | 1% | 8%
10 | · | 2% | ·
11 | · | -28% | ·
12 | · | 1% | -3%
13 | 8% | -24% | -3%
14 | 20% | 28µM* | -15%
15 | 14% | ? | -5%
16 | -60% | 1% | 15%

# (more compounds)
No. | canonical_smiles | A549 viability | Nrf2 ARE act | Nrf2 block
17 | COCc1cc(=O)n2[nH]c(-c3ccc(C)cc3)cc2n1 | -8% | 3% | 15%
18 | CCOC(=O)Cc1c(C)nc2c(-c3ccc(Cl)cc3)c[nH]n2c1=O | -14% | 3% | ?
19 | COCc1cc(=O)n2[nH]cc(-c3ccccc3)c2n1 | -4% | 2% | 5%
20 | CCc1ccc(NCc2cc3cc4c(cc3n(CC(=O)Nc3cccc(OC)c3)c2=O)OCO4)cc1 | 1% | 6% | -1%
21 | Cc1cccc(-n2ncc(C(=O)N3CCN(C4CCCCC4)CC3)c2C2CCN(C(=O)OC(C)(C)C)CC2)c1 | ? | 4% | -2%
22 | COc1ccc(-c2cc3nc(N)cc(=O)n3[nH]2)cc1 | 1% | 5% | 6%
23 | CCOC(=O)c1cc(=O)n2[nH]c(-c3ccc(C)cc3)cc2n1 | 4% | 0% | ?
24 | CCc1c(C)nc2cc(-c3ccc(OC)cc3)[nH]n2c1=O | -7% | 0% | 22%

No. | p53 reactivation | ClpP mod | miR-21 reporter
17 | 11% | 20µM* | -39%
18 | ? | 3.2µM* | ?
19 | 7% | 0% | -15%
20 | · | 4% | 1%
21 | · | 2% | 25%
22 | · | 4% | -42%
23 | 17% | ? | -6%
24 | 7% | 32µM* | -49%

# Compound profiles, from the list above:
# Listed for Cc1cc2oc(=O)c(CC(=O)O)c(C)c2c2occ(-c3ccc(F)cc3)c12 = A549 viability: 8%; Nrf2 ARE act: 1%; Nrf2 block: ?; p53 reactivation: ·; ClpP mod: 28µM*; miR-21 reporter: -28%
# Listed for CCOC(=O)Cc1c(C)nc2cc(-c3ccc(Cl)cc3)[nH]n2c1=O = A549 viability: -6%; Nrf2 ARE act: 0%; Nrf2 block: ?; p53 reactivation: 20%; ClpP mod: 28µM*; miR-21 reporter: -15%
# Listed for Cc1cc2nc(C)c(Cc3ccccc3)c(=O)n2[nH]1 = A549 viability: -3%; Nrf2 ARE act: 0%; Nrf2 block: 6%; p53 reactivation: -13%; ClpP mod: 14µM*; miR-21 reporter: -7%

# More entries follow:
No. | canonical_smiles | A549 viability | Nrf2 ARE act | Nrf2 block
25 | CCOC(=O)CCc1c(C)nc2cc(-c3ccc(F)cc3)[nH]n2c1=O | 4% | 0% | ·
26 | Cc1nc2scc(-c3ccccc3)c2c(=O)n1N=C1C=CC(=O)C=C1 | -10% | 10µM* | -13%
27 | Cc1nc2scc(-c3ccccc3)c2c(=O)n1N | -2% | 1% | -10%
28 | CCC(=O)Nc1ccccc1-c1nc2ccccc2n(CC(=O)c2ccc(Cl)cc2)c1=O | 2% | 0% | 4%
29 | O=[N+]([O-])c1cc(-n2cnnn2)ccc1N1CCC(Cc2ccccc2)CC1 | ? | 0% | 10µM*
30 | CC1CC(C)CN(c2ccc(-n3cnnn3)cc2[N+](=O)[O-])C1 (stereo not given) | -3% | 0% | 10%
31 | CCC(=O)N1CCc2cc(S(=O)(=O)NC(Cc3ccccc3)C(=O)NCc3cccc(OC)c3)ccc21 (stereo not given) | 1% | 0% | -3%
32 | COc1ccc(S(=O)(=O)N(C)C[C@H]2Oc3c(NC(=O)Nc4c(C)noc4C)cccc3C(=O)N([C@H](C)CO)C[C@@H]2C)cc1 | 6% | -1% | 6%

No. | p53 reactivation | ClpP mod | miR-21 reporter
25 | 3% | 25µM* | -14%
26 | -2% | · | -63%
27 | 1% | -3% | -1%
28 | · | 1% | 3%
29 | -2% | -3% | -11%
30 | 10% | 2% | -9%
31 | · | -1% | -4%
32 | -4% | 1% | ·

# (list continues)
No. | canonical_smiles | A549 viability | Nrf2 ARE act | Nrf2 block
33 | COc1cccc2sc3ccc(C#Cc4ccc(N)cc4)cc3c(=O)c12 | ? | -1% | ?
34 | COc1ccc2sc3ccccc3c(=O)c2c1OC | -7% | 11µM* | ?
35 | COc1cc(-c2ccno2)ccc1S(=O)(=O)N1CCN(c2cccc(Cl)c2)CC1 | -2% | 0% | ·
36 | COc1ccccc1C(C[N+](=O)[O-])c1c(N)n(C)c(=O)n(C)c1=O (stereo not given) | ? | ? | 12µM*
37 | COc1ccccc1C(c1c(N)n(C)c(=O)n(C)c1=O)C(C)[N+](=O)[O-] (stereo not given) | -9% | ? | ?
38 | O=C(c1ccc(F)cc1)C(CN1CCOCC1)c1ccccc1 (stereo not given) | -2% | ? | -29%
39 | CN(C)CC(CCC(CN(C)C)C(=O)c1ccccc1)C(=O)c1ccccc1 (stereo not given) | ? | ? | 18µM*
40 | CCOc1ccc(C(=O)C(CCC(CN(C)C)C(=O)c2ccc(OCC)cc2)CN(C)C)cc1 (stereo not given) | ? | ? | ?
41 | O=C(c1ccccc1)C(CCC(CN1CCOCC1)C(=O)c1ccccc1)CN1CCOCC1 (stereo not given) | -17% | -4% | 23µM*
42 | O=C(NCCSCc1ccccc1)c1ccc(C2SCC(=O)N2Cc2ccccc2)cc1 (stereo not given) | -7% | 3% | 10µM*

No. | p53 reactivation | ClpP mod | miR-21 reporter
33 | 22% | 1% | -36%
34 | 26% | -5% | -59%
35 | · | -8% | 21%
36 | -15% | 1% | ?
37 | 30% | · | 6%
38 | -29% | -2% | ?
39 | -13% | 1% | ?
40 | -16% | 0% | ?
41 | -33% | -3% | ?
42 | 2% | -3% | 17%
